Source: patent US20250381198A1 (Melt Pharmaceuticals, Inc., priority 2024, published 2025)

Assay: Phase 1 crossover relative bioavailability study: plasma pharmacokinetics of midazolam, 1-hydroxymidazolam, ketamine and norketamine
Details: Treatment C: midazolam IV 3.5 mg, fasted
Description: PK analysis was performed using noncompartmental methods in Phoenix WinNonlin® (Version 8.1, Certara, L.P.) in conjunction with the internet-accessible implementation of the Pharsight® Knowledgebase Server™ (PKSO; Version 4.0.4, Certara, L.P). PKSO provides protected and structured storage, audit trails, and version control for study data, analyses, and related files, supporting 21 CFR Part 11 compliance. The analysis was performed in accordance with the Statistical Analysis Plan (Version 1.0, 5 Jan. 2021).
During the PK analysis, concentrations below the limit of quantitation (BLQ) up to the time of the first quantifiable concentration were treated as zero. Embedded (values between 2 quantifiable concentrations) and terminal BLQ concentrations were treated as “missing”. Calculation of the PK characteristics were based on actual elapsed times [h] (relative to time of dose).
All PK analyses were performed on the data from the PK Analysis Population. […] The ANOVA model included factors for sequence, subject within sequence, treatment, and period.

Q: For `Cc1ncc2n1-c1ccc(Cl)cc1C(c1ccccc1F)=NC2` [Midazolam, 8-chloro-6-(2-fluorophenyl)-1-methyl-4H-imidazo[1,5-a][1,4]benzodiazepine], which “Midazolam Tlast, mean” value is on record?
A: Its value is 23.4 h.
